Laboratory results from patent US20170247429A1, “BLOOD-BRAIN BARRIER DISRUPTING AGENTS AND USES THEREOF” (TEL HASHOMER MEDICAL RESEARCH INFRASTRUCTURE AND SERVICES …, priority 2014, published 2017).

Legend:
[1] = test system: porcine brain endothelial cells monolayer (PBEC-M); test: TEER measurement in the in-vitro BBB model (PBEC-M on Transwell inserts); type: cell-based; details: for Max. BBB opening after 2 hrs (% of initial TEER): 0 indicates maximal opening of the BBB
Description: Primary cultures of porcine brain endothelial cells monolayer (PBEC-M) were used as a cellular barrier. In brief, cells were isolated from freshly collected porcine brains as described previously (Cooper et al., J Neurochem 2011, 116: 467-475). Culture purity was confirmed by specific staining for Von-Willebrand factor. PBEC were seeded at a density of 100,000 PBEC/cm^2 on a microporous membrane of a Transwell insert placed into a 12 well plates. Cells were cultured in plating medium for up to 3 days until reaching confluence. Plating medium was composed of newborn calf serum (10%), L-glutamine (2 mM), penicillin (100 units/ml), streptomycin (0.1 mg/ml) and gentamicin (0.1 mg/ml), all dissolved in Earl's Medium 199. The medium was replaced with a serum-free medium (assay medium) for an additional period of 24-48 hr. The assay medium consisted of L-glutamine (2 mM), penicillin (100 units/ml), streptomycin (0.1 mg/ml), gentamicin (0.1 mg/ml) and hydrocortisone (550 nM) in Dulbecco-modified Earls medium (DMEM) diluted 1:1 in Hams F12 medium. The integrity of this cellular barrier was determined by measuring TEER, which reflects the impedance to the passage of small ions through the physiological barrier and is recognized as one of the most accurate and sensitive measures of BBB integrity. A decrease in TEER reflects increase impermeability and a loss of barrier function. TEER of the filter insert was recorded using an Endohm chamber connected to an EVOM resistance meter. The effective TEER of each filter insert was calculated by subtracting the TEER of the microporous membrane without PBEC and is reported in units of Ωcm^2. For testing the effects of the different modified HSA compounds on TEER, they were diluted in assay medium at the desired concentrations, and added to the luminal (to mimic blood to brain passage) or abluminal (to mimic brain to blood passage) side of the inserts.
The following six modified HSA analogues were tested for their potency to disrupt the BBB in the in-vitro BBB model: HSA in which 85 carboxylic moieties were linked to glycine amide (Gly85-HSA); HSA in which 83 carboxylic moieties were linked to leucine amide (Leu83-HSA); HSA in which 80 carboxylic moieties were linked to ethylamine (EA-HSA); HSA in which 78 carboxylic moieties were linked to alanine amide (Ala78-HSA); HSA in which 79 carboxylic moieties were linked to propylamine (PA79-HSA); HSA in which 80 carboxylic moieties were linked to ethanol amine (E-Alco-HSA).
The effect of cationized-HSA analogues on the permeability of BBB was determined using an in-vitro BBB model as described in Example 1.

[2] = test system: porcine brain endothelial cells monolayer (PBEC-M); test: In-vitro permeability of methotrexate across PBEC-M; type: cell-based; details: for permeability value for the penetration of MTX: inserts treated 2 hr at abluminal side with 14 μM, MTX 1 mM at luminal side, mean±SEM
Description: (§1) To evaluate the ability of MTX to permeate BBB, the in-vitro BBB model described in Example 1 was employed. BBB inserts were treated for 2 hr at the abluminal side with EA derivatized HSA (14 μM; right column) or assay medium (left column) serving as control. MTX (1 mM) was placed at the luminal side, and the amount reached the abluminal side, in the presence and the absence of the EA-HSA, was quantitated by absorption at 305 nm, using ε305=22,700. Permeability values were calculated as previously described (Cohen-Kashi Malina et al., Brain Res 2009, 1284: 12-21). Results are presented as mean±SEM (n=3-5 inserts per treatment).
as §1, with “(Example 1).” for “To evaluate the ability of MTX to permeate BBB, the in-vitro BBB model described in Example 1 was employed.”, “1,3-DAP-cationized-HSA” for “EA derivatized HSA”, “cationized-HSA” for “EA-HSA,”, “ibid).” for “Brain Res 2009, 1284: 12-21).”, “values (n=3” for “(n=3-5”

[3] = test system: naïve (normal) rat brains; test: MRI after intracranial-CED administration in naive rats (BBB disruption, hemorrhages, toxicity); details: for tissue toxicity, T2-weighted MRI: 7 days following treatment; for tissue damage, T2-weighted MRI: immediately following treatment; for hemorrhages, gradient echo MRI: immediately post treatment
glioma cell (CNS-1) = test: Glioma cell viability in the 'brain cancer-related' in vitro BBB model; type: cell-based, rat; details: PBEC-M treated with MTX in the presence of EA-HSA; within 48 hours
Description: The antineoplastic efficacy of EA-HSA against glioma cells located in the brain side further was validated in the “brain cancer-related” in vitro BBB model (FIGS. 1C and 3). PBEC-M were treated with MTX in the presence and absence of EA-HSA. Results are presented as mean±SEM (n=4 inserts per treatment). FIGS. 1B and 2 establish that EA-HSA enables MTX entry at a sufficient rate (FIG. 1B) resulting with 50% cell death in the abluminal located glioma cell, within 48 hours (FIG. 2; ***p<0.001).

[4] = test system: tight-junction (TJ)-related membrane proteins (occludin, ZO-1), actin filaments in PBEC-M; test: Immunocytochemistry of tight-junction related proteins and actin in PBEC-M; type: cell-based, porcine
Description: The mode of action by which EA-HSA induces BBB permeability was investigated in a set of immunocytochemistry studies. These studies were performed to identify alterations in tight-junction (TJ)-related membrane protein(s). The in-vitro BBB assay described in example 1 was employed. The assays were carried out at a stage when TEER has been reduced by EA-HSA, to a level permitting the paracellular (between adjacent cells) passage of impermeable substances.
In the immunocytochemistry studies, PBEC were grown on Transwell inserts for several days until confluence was reached (TEER>300 Ωcm^2). The cells were then fixed with ice cold 4% para-formaldehyde for 10 min at 25° C. and exposed to blocking solution (20% horse serum/0.1% Triton/phosphate-buffered saline (PBS)) for 2 hr. The PBEC were then incubated with mouse anti-occludin and rabbit anti ZO-1 antibodies at a 1:200 dilution, overnight at 4° C., washed with PBS and stained with a Cy3-labeled anti-rabbit or Alexa-Flour 488 anti-mouse secondary antibodies (1:200, 1 hr, RT). Nuclei were counterstained with Hoechst reagent for 20 sec. After mounting (Aqua Poly/Mount), the inserts were observed and photographed. Actin filaments were stained with Alexa Fluor 488-conjugated phalloidin (3 μl/insert, incubated together with the secondary antibody).

[5] = PBEC-M incubated with EA-HSA 2 hr

Substance	Time to reach max effect ([1]; 0.1 mg/ml)	Max. BBB opening after 2 hrs (% of initial TEER) ([1]; 0.1 mg/ml)	T1/2 (min to reach half initial TEER) ([1]; 1 mg/ml)	Time to reach max effect ([1]; 1 mg/ml)	Max. BBB opening after 2 hrs (% of initial TEER) ([1]; 1 mg/ml)	also measured
1,3-DAP-cationized-HSA: HSA whose Aspartic acid and Glutamic acid side chain residues were cationized with 1,3 diaminopropane-2HCl						reduction of TEER value ([1]; 1 mg/ml, within a short period (FIG. 8A)): about 80%; permeability value for the penetration of MTX [2]: 6.48±0.23 ×10^−6 cm/second; BBB disruption, T1-weighted MRI ([3]; 40 μg/rat CED, 30 min after treatment): BBB-disruption; tissue toxicity, T2-weighted MRI ([3]; 40 μg/rat CED): lack of tissue toxicity; tissue damage, T2-weighted MRI ([3]; 40 μg/rat CED): lack of tissue damage; hemorrhages, gradient echo MRI ([3]; 40 μg/rat CED): lack of hemorrhages
Ala78-HSA: HSA in which 78 carboxylic moieties were linked to alanine amide	120 min	78 % of initial TEER	5 to 15 min	~60 min	1 % of initial TEER	
E-Alco-HSA: HSA in which 80 carboxylic moieties were linked to ethanol amine			30 min	~90 min	4 % of initial TEER	
EA-HSA: HSA in which 80 carboxylic moieties were linked to ethylamine			5 to 15 min	45 min	0 % of initial TEER	reduction of TEER value ([1]; 5.6 μM, within a short period (FIG. 1A)): 90-98%; cell death in the abluminal located glioma cell (glioma cell (CNS-1)): 50%; increase of MTX permeability relative to control ([2]; 14 μM, 2 hr, MTX 1 mM): 47 fold; permeability value for the penetration of MTX [2]: 11.74±1.3 ×10^−6 cm/second; BBB disruption, T1-weighted MRI ([3]; 20 μg/rat CED, 30 min after treatment): BBB-disruption; tissue toxicity, T2-weighted MRI ([3]; 20 μg/rat CED): lack of tissue toxicity; tissue damage, T2-weighted MRI ([3]; 20 μg/rat CED): lack of; hemorrhages, gradient echo MRI ([3]; 20 μg/rat CED): lack of hemorrhages; duration of BBB disruption in vivo ([3]; single challenge, 20 μg/rat CED): transient; expression of Occludin [4, 5]: significantly altered; expression pattern of ZO-1 [4, 5]: only slightly altered; actin filaments ([4]; PBEC-M incubated with EA-HSA 2 hr (FIG. 4)): disorganization
Gly85-HSA: HSA in which 85 carboxylic moieties were linked to glycine amide	120 min	15 % of initial TEER	5 to 15 min	30 min	0 % of initial TEER	T1/2 (min to reach half initial TEER) ([1]; 0.1 mg/ml): 60 to 120 min
HSA-Gly85-MTX3: HSA in which 85 carboxylic moieties were linked to glycine amide and 3 lysine side chains were linked to MTX						BBB disruption, T1-weighted MRI ([3]; 40 μg/rat CED, 30 minutes after administration (FIGS. 10A-10B)): disrupted
Leu83-HSA: HSA in which 83 carboxylic moieties were linked to leucine amide	120 min	47 % of initial TEER	5 to 15 min	30 min	0 % of initial TEER	T1/2 (min to reach half initial TEER) ([1]; 0.1 mg/ml): 60 to 120 min
PA79-HSA: HSA in which 79 carboxylic moieties were linked to propylamine	120 min	97 % of initial TEER	30 min	~75 min	2 % of initial TEER	
